Results taken from patent publication US20230302032A1, “ANTIBACTERIAL COMPOSITIONS AND METHODS FOR FABRICATING THEREOF” (Harrow IP LLC, priority 2020, published 2023).

Test: HPLC potency and stability of stored antibiotic solutions;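 also: stored antibiotic compositions assayed by HPLC for remaining potency, USP acceptance requires at least 90% of nominal concentration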
Details: Vancomycin alone, 5.0 % aqueous solution, stored in a dark place at room temperature

Measured: Stability result, % (HPLC potency)

Vancomycin
102%: Day 120 | Day 150 | Day 180
